Source: patent US20100099575A1 (MODPRO, published 2010)

Legend:
[1] = biological target: T1, human carbonic anhydrase II (human, UniProt P00918 2-260); test: fluorescence titration of 1 µM KE2-PL with 5 nM-50 µM HCAII, fit to a bimolecular model
[2] = biological target: T1, human carbonic anhydrase II; test: surface plasmon resonance, HCAII immobilized, KE2-PL in solution at 40 nM to 10 µM, steady state, 1:1 model

B1: KE2-PL (KE2 with the dansyl fluorescent probe at Lys15 and the benzenesulfonamide ligand with aliphatic spacer, from active ester Id, at Lys34) (peptide)
chain: NAADLEAAIRHLAEKLAARGPVDAAQLAEQLAKKFEAFARAG
modifications: dansyl on the side chain of Lys15; 4-carboxybenzenesulfonamide coupled through a 6-aminohexanoic acid spacer (from active ester Id) on the side chain of Lys34
notes: Synthetic 42-residue helix-loop-helix peptide
Which Kd [1] does the source give for B1 here?
The Kd was 20 nM.

What about the Kd [2] of the same binder?
The Kd was 80 nM.
